Earlier results on two substances are cited in patent US20160378912A1, “STRUCTURE-BASED MODELING AND TARGET-SELECTIVITY PREDICTION” (EPIGENETX, LLC, priority 2013, published 2016).

Protein sequences, listed by entry. Tags and fused reporters are not part of them.
UniProt Q13547, whole entry: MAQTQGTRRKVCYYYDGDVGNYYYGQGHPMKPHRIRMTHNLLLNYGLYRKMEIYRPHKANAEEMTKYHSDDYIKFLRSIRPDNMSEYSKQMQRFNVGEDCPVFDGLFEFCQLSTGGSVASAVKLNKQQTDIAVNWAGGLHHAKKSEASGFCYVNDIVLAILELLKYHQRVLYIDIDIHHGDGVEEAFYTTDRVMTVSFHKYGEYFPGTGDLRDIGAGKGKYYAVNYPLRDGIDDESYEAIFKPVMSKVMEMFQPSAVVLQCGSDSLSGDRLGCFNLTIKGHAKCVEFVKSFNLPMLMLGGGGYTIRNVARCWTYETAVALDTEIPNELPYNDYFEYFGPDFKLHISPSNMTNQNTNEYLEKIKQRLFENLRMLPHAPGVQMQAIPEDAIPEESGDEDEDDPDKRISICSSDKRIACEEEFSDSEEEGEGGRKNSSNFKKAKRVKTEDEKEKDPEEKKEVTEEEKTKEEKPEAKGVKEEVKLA
UniProt Q92769, whole entry: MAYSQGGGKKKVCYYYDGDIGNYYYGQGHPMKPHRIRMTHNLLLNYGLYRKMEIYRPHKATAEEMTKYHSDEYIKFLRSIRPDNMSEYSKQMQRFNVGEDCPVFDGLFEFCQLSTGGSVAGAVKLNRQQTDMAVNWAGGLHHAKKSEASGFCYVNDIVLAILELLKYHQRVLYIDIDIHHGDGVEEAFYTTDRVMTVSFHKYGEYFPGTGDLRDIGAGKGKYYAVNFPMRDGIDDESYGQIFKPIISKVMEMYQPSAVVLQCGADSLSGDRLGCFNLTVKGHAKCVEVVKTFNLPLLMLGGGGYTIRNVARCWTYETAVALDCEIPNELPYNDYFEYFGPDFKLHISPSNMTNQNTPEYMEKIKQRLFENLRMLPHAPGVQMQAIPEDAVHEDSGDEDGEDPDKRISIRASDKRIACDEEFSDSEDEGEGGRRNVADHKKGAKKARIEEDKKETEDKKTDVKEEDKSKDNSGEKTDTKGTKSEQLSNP

Like-named read-outs stand apart in the source and are kept apart here.

Broadly, the IC50 is the concentration at which inhibition is half-maximal. For orientation: pIC50 means the IC50 on a negative log10 scale, so that one unit is a factor of ten.

One series has as its target HDAC1 (Homo sapiens, UniProt Q13547). Conditions: cited from earlier work.
Another series addresses HDAC2 (Homo sapiens, UniProt Q92769). To be noted: cited from earlier work.

For Largazolethiol, the results for the “Exp. pIC50” value on HDAC1 and at HDAC2 were 8.92 and 8.46, respectively. Also, the IC50 on HDAC1 (read-out: IC50) was 1.2 nM; at HDAC2, 3.5 nM.

For the substance Oxamflatin, on HDAC1 (HDAC1, experimental value of modeled complex), the pIC50exp was 7.301. Moreover, at HDAC1 (HDAC1, training set composition), the pIC50 is 7.30. The IC50 at HDAC1 (HDAC1, training set, read-out: HDACs inhibitory activities IC50) is 50 nM.
